From ChEMBL document CHEMBL1139387, “Fragment-based discovery of the pyrazol-4-yl urea (AT9283), a multitargeted kinase inhibitor with potent aurora kinase activity” (J Med Chem, 2009)

Target: T1, Aurora kinase A (Homo sapiens, UniProt O14965)
T1 sequence (O14965 whole entry): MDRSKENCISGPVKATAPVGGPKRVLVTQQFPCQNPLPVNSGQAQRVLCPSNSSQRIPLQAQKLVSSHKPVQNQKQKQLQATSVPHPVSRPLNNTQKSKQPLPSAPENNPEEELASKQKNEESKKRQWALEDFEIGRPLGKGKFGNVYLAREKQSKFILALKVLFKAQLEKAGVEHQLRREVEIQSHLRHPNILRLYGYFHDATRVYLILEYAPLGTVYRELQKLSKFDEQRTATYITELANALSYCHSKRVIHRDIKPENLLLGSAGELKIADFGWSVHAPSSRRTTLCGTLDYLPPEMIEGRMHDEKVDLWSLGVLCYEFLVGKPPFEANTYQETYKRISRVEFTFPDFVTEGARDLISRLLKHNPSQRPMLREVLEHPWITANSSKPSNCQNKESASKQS

SMILES: O=C(Nc1c[nH]nc1-c1nc2ccc(CN3CCOCC3)cc2[nH]1)c1ccc(F)cc1
- IC50: 10 nM

SMILES: O=C(Nc1c[nH]nc1-c1nc2ccccc2[nH]1)c1ccccc1
- IC50: 5.9 nM
